# Measured values as given in PubChem BioAssay AID930 (National Center for Advancing Translational Sciences (NCATS), 2007).
# The list shows a part of the results, in another mix than the full data. Active and inactive are the calls of the source. Calls come from the whole dose curve; as a rule, active = well fitted activation curve with a large enough effect; inconclusive = small, poorly fitted or top-dose-only effect; inactive = flat fitted curve, though single readings scatter.
# Assay: Confirmation and Secondary Assay for Modulators of Hemoglobin Beta Chain Splicing at IVS2 705 locus; note: % of control where 0% means no effect
# Conditions: HeLa EGFP-705 splicing reporter, GFP fluorescence, 48 h; at 46.1 µM (top of the series)
# Source text: NIH Chemical Genomics Center [NCGC] NIH Molecular Libraries Screening Centers Network [MLSCN] MLSCN Grant: 1 X01 MH080684-01 PI Name: Dr. Ryszard Kole NCGC Assay Overview: Modulation of Alternative Splicing as Therapy Abnormal splicing is associated with a number of diseases, including cancer and genetic diseases such as cystic fibrosis, muscular dystrophy and beta-thalassemia. Alteration of disease associated splicing patterns provides a promising target for treatment. […] Mutations in the second intron of the b-globin gene at positions 654 or 705 are clinically relevant and cause mis-splicing which results in an out of frame gene product. […] EGFP-705 HeLa Cells as screen system. HeLa cell lines were stably transfected with a construct in which the EGFP (enhanced green fluorescent protein) cDNA was interrupted by the second intron of the beta-globin gene (IVS2-705). The ISV2 intron contains mutations which cause mis-splicing of EGFP and premature termination of EGFP which results in a nonfluorescent protein product. […]
# NCGC Assay Protocol Summary: Confirmatory Screening. […] Plates were read in the Acumen Explorer (TTP Labtech) using 488 nm laser excitation and 500-520 nm emission PMT filter in a 1 x 8 uM capture mode. Fluorescnet objects ranging in size from 5 to 250 uM were measured and the total peak GFP intensity for each well was used for data analysis. […]
row,Compound,activation
1,CN(CCCl)CCCl,inactive: 1.52%
